One data set deals with mouse S-180 sarcoma. As to the kind of experiment: Anti-tumor effect on mouse transplanted sarcoma S-180 (I.M.). The format is in vivo. The settings on record: CTX 18.0 mg/kg/d x10; outset 22.4, 22.6, 19.3 in three experiments; in g (unit assumed). From the text: (§1) A solvent blank (i.e., the specifically designed solution illustrated in Table 1), a saline blank as a […] control are used as controls for the in vivo tests. As per the Drug Administration Law of the People's Republic of China, and the rules governing observation of the pharmaco-dynamic study of the therapy action, the tumors were surgically removed from tumor infected mice and were homogenized to form suspensions followed by filtration to make a suspension solution at 1×10^6 -10^7 cell/ml. The suspension was injected (i.e., 0.2 ml per mice) into the test mice for tumor growth until the transplanted tumor cells were established and grew up to a size of 0.5×0.5 cm. The inhibition of mouse transplanted liver tumor and Sarcoma S.180 are evaluated by a series of doses of Inmunsyn E as illustrated in Tables 5 and 6 below for 10 days. The Immunsyn E was administered to mice through muscle injection. […] At the end of the in vivo tests, several parameters such as mouse body weight, average tumor weight and percentage of tumor inhibition, are determined.
(§2) % inhibition rate=(average tumor weight of the solvent group or
(§3) (N.S.)-average tumor weight of the Immunsyn E treated group)/ average
(§4) tumor rate of the solvent group

Data set [1] has as its system mouse transplanted liver tumor. As to the kind of experiment: Anti-tumor effect on mouse transplanted liver tumor (I.M.). Format: in vivo. As to conditions: CTX 18.0 mg/kg/d x10; outset 19.9, 20.3, 20.9 in three experiments; in g (unit assumed).
From the text: as §1, §2, §3, §4

Take `O=P1(N(CCCl)CCCl)NCCCO1` (centres unmarked) [CTX]: the results for the “Body weight final” value (with mouse S-180 sarcoma; in data set [1]) were 29.1 and 27.8, respectively.
